Experimental data taken from US20080299108A1, “Peptides for Diagnostic and Therapeutic Methods for Celiac Sprue” (priority 2005, published 2008).

System: LQLQPFPQPQLPYPQPQLPYPQPQLPYPQPQPF
Test: purified protein, by the assay type
Conditions: other: deamidation by tTGase

For “tissue transglutaminase (tTGase) (Homo sapiens)”, the kcat/Km was 7330 M⁻¹ s⁻¹.
